Test results: patent publication US4746736A, “Carbapenem antibiotics” (priority 1986, dated 1988)

Test: Blood levels in mice after intramuscular administration
Settings: 20 mg/kg i.m., mice (compiled table)

Work on “3-[4-(N,N-dimethyl-1,2,3-triazolium)methylthio]-6α-[1-(R)-hydroxyethyl]-7-oxo-1-azabicyclo(3.2.0)hept-2-ene-2-carboxylate [Example 15 "B"]” yielded a T1/2 of 10 min.
